Screening data deposited in PubChem BioAssay by Broad Institute.
The list is not random: actives were taken first. Their share in the collection is about 1.2%.
miR-122 sensor: blocks miR-122 activity in Huh7 sensor cells; activation (reporter increase), % at 12.5 µM; 0.3% of 340,000 active; Huh7 miR-122 Renilla luciferase sensor, 48 h; neutral wells = 0, positive control = 100;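 active = mean replicate activation score at least 90 and every replicate individually at or above 90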;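 note: higher luciferase means less miR-122 activity so hits act as miR-122 inhibitors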
UUG fidelity: yeast start codon fidelity modulation; activity score, % at 18.7 µM; actives 0.13% (n = 350,000); S. cerevisiae UUG-firefly luciferase reporter, luminescence/redox ratio; AID 602363;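 active means replicate mean at a twofold rise or more, about +100% in these data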;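 further: firefly luciferase made from a UUG start codon reports start codon fidelity; reporter light over untreated wells divided by growth signal over untreated wells; some hits fall short of that in this replicate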
Statin myotox sup: suppressors of simvastatin-induced myotoxicity in C2C12 myotubes. 0.78% of 330,000 active. ATP luminescence, 48 h; scaled: DMSO 0, geranylgeraniol control 100. rescue of ATP level, % at 7.49 µM;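 active = mean ATP rescue above about 67%, or every replicate alone reaching that limit, limit read from the data, passing the limit was not always enough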;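 note: myotubes were challenged with 10 µM simvastatin during compound exposure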
Cneo AK release: Cryptococcus neoformans lysis via adenylate kinase release; C. neoformans lysis, adenylate kinase release luminescence, 4 h; normalised: neutral wells 0, clomiphene wells 100; lysis activity, % at 15 µM; 0.2% of 360,000 active;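 active = mean lysis activity across replicates of at least 80%, whatever share of replicates individually reach that level; inactive = mean lysis activity below 80%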
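Assay system: log-phase C. neoformans yeast / Quantity: yeast cell density of 5 × 10^6 cells/mL / Medium: fresh YPD growth medium / Compound: single dose / Timing: static 4 h at 37 °C with compound, 1 h detection / Measured by: adenylate kinase release luminescence / Read-out: lysis from increased AK signal / Benchmarks: Clomiphene as positive lysis control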
* = called active by the depositor; [ ] = dose if it differs, or a comment.

Preview:
Results for CC(C)NC(=O)N(C)C[C@@H]1Oc2ncc(-c3cc4ccccc4o3)cc2C(=O)N([C@H](C)CO)C[C@@H]1C ?
miR-122 sensor: -8[16.7 µM]; UUG fidelity: 10; Statin myotox sup: 1; Cneo AK release: 2

Results for COc1ccc(S(=O)(=O)N(C)C[C@@H]2Oc3ncc(-c4cc5ccccc5o4)cc3C(=O)N([C@H](C)CO)C[C@@H]2C)cc1 ?
miR-122 sensor: -3[16.7 µM]; UUG fidelity: 7; Statin myotox sup: 12; Cneo AK release: -2

Results, from the start:
Results for CC(C)NC(=O)N(C)C[C@@H]1Oc2ncc(-c3cc4ccccc4o3)cc2C(=O)N([C@H](C)CO)C[C@@H]1C ?
miR-122 sensor: -8[16.7 µM]; UUG fidelity: 10; Statin myotox sup: 1; Cneo AK release: 2

Results for COc1ccc(S(=O)(=O)N(C)C[C@@H]2Oc3ncc(-c4cc5ccccc5o4)cc3C(=O)N([C@H](C)CO)C[C@@H]2C)cc1 ?
miR-122 sensor: -3[16.7 µM]; UUG fidelity: 7; Statin myotox sup: 12; Cneo AK release: -2

Results for CN1C(=O)CC(N2CCN(c3ccccc3)CC2)C1=O (centres undefined) ?
miR-122 sensor: -3; UUG fidelity: -18; Statin myotox sup: 138*; Cneo AK release: 0

Results for O=C(C[C@@H]1CC[C@@H](NS(=O)(=O)c2ccc(F)cc2)[C@@H](CO)O1)NCc1ccc(Cl)c(Cl)c1 ?
miR-122 sensor: 15[16.7 µM]; Statin myotox sup: 25; Cneo AK release: -1

Results for C[C@@H]1CN([C@@H](C)CO)C(=O)c2cc(-c3cccnc3)cnc2O[C@@H]1CN(C)C(=O)C1CCC1 ?
miR-122 sensor: 0[16.7 µM]; UUG fidelity: -13; Statin myotox sup: 15; Cneo AK release: 3

How did O=C(COc1ccccc1[N+](=O)[O-])Nc1cccc(S(=O)(=O)N2CCCC2)c1 do in these assays?
miR-122 sensor: -1; UUG fidelity: -8; Statin myotox sup: 1; Cneo AK release: -1

What do the screens show for `COc1ccc(NS(=O)(=O)c2cccc(NC(=O)COc3ccccc3[N+](=O)[O-])c2)cc1`?
miR-122 sensor: 146*; UUG fidelity: -11; Statin myotox sup: -3; Cneo AK release: 0

What do the screens show for `CCCn1c(=S)[nH]c2cc(C(=O)N3CCN(C(=O)OCC)CC3)ccc2c1=O`?
miR-122 sensor: 0; UUG fidelity: -18; Statin myotox sup: 9; Cneo AK release: -4

How did CCOC(=O)N1CCN(C(=O)c2ccc3c(=O)n(CCC4=CCCCC4)c(=S)[nH]c3c2)CC1 do in these assays?
miR-122 sensor: -6; UUG fidelity: 0; Statin myotox sup: 94*; Cneo AK release: -1

How did CCOC(=O)N1CCN(C(=O)c2ccc3c(=O)n(Cc4ccc(Cl)cc4)c(=S)[nH]c3c2)CC1 do in these assays?
miR-122 sensor: 2; UUG fidelity: -14; Statin myotox sup: 82*; Cneo AK release: 4

What do the screens show for `C[C@H]1CN([C@@H](C)CO)C(=O)c2cc(NC(=O)c3ccncc3)ccc2O[C@H]1CN(C)C`?
miR-122 sensor: -3[16.7 µM]; UUG fidelity: -10; Statin myotox sup: -11; Cneo AK release: -1

What do the screens show for `CCc1ccccc1NC(=O)C(CC)Sc1nc2cc3c(cc2c(=O)n1Cc1ccco1)OCO3` (centres undefined)?
miR-122 sensor: 11; UUG fidelity: -3; Statin myotox sup: 45; Cneo AK release: 3

Brought forward from above: 2 compounds; new compounds follow.
What do the screens show for `C[C@H]1CN([C@@H](C)CO)C(=O)c2cc(NC(=O)c3ccncc3)ccc2O[C@H]1CN(C)C`?
miR-122 sensor: -3[16.7 µM]; UUG fidelity: -10; Statin myotox sup: -11; Cneo AK release: -1

What do the screens show for `CCc1ccccc1NC(=O)C(CC)Sc1nc2cc3c(cc2c(=O)n1Cc1ccco1)OCO3` (centres undefined)?
miR-122 sensor: 11; UUG fidelity: -3; Statin myotox sup: 45; Cneo AK release: 3

Results for CCc1ccc(NC(=O)C(CC)Sc2nc3cc4c(cc3c(=O)n2Cc2ccco2)OCO4)cc1 (centres undefined) ?
miR-122 sensor: 139*; UUG fidelity: -7; Statin myotox sup: -55; Cneo AK release: -1

What do the screens show for `CC(=O)c1ccccc1NC(=O)COC(=O)c1cc(C)oc1C`?
miR-122 sensor: 0; UUG fidelity: -14; Statin myotox sup: -9; Cneo AK release: -5

Results for C=C(C)COC(=O)c1ccccc1C(=O)OCC1(C)CO1 (centres undefined) ?
miR-122 sensor: -8; UUG fidelity: -18; Statin myotox sup: 98*; Cneo AK release: 3

Results for CCC(=O)N(C)C[C@@H]1Oc2cc(-c3cccc(F)c3)ccc2S(=O)(=O)N([C@H](C)CO)C[C@H]1C ?
miR-122 sensor: 1[16.7 µM]; UUG fidelity: 0; Statin myotox sup: -42; Cneo AK release: -2

What do the screens show for `COc1ccc(C(=O)c2ccc(OC)cc2O)c(O)c1`?
miR-122 sensor: 2; UUG fidelity: -7; Statin myotox sup: 128*; Cneo AK release: 3

What do the screens show for `C[C@@H]1CN([C@H](C)CO)C(=O)c2cc(NC(=O)CCCN(C)C)ccc2O[C@@H]1CN(C)S(=O)(=O)c1ccc(F)cc1`?
miR-122 sensor: 1[16.7 µM]; UUG fidelity: -6; Statin myotox sup: -13; Cneo AK release: -1

What do the screens show for `COc1ccc2sc(-c3ccccc3OC)c(-c3ccc(O)cc3)c2c1`?
miR-122 sensor: 2; UUG fidelity: -10; Statin myotox sup: 132*; Cneo AK release: -1

What do the screens show for `COc1cc2sc(-c3ccccc3OC)c(-c3ccc(O)cc3)c2cc1OC`?
miR-122 sensor: -2; UUG fidelity: -7; Statin myotox sup: -57; Cneo AK release: -1

Results for O=C(c1ccccc1)c1ccc(-c2ccc(O)cc2)cc1 ?
miR-122 sensor: 92*; UUG fidelity: -6; Statin myotox sup: -20; Cneo AK release: -1

Results for Cc1noc(C)c1NC(=O)N[C@@H]1C=C[C@H](CC(=O)NCCCN(C)C)O[C@@H]1CO ?
Statin myotox sup: 4; Cneo AK release: -4

Results for CN1C(=O)c2cc(NC(=O)c3cnccn3)ccc2OC[C@@H]2O[C@H](CC(=O)O)CC[C@H]21 ?
miR-122 sensor: -1[16.7 µM]; UUG fidelity: -4; Statin myotox sup: -3; Cneo AK release: 5

What do the screens show for `Cc1ccnc(NCc2cc(C)ccc2O)c1`?
miR-122 sensor: 211*; UUG fidelity: 8; Statin myotox sup: 3; Cneo AK release: 0

How did Cc1ccc(O)c(CNc2ccccn2)c1 do in these assays?
miR-122 sensor: 10; UUG fidelity: -8; Statin myotox sup: 112*; Cneo AK release: -1

What do the screens show for `COc1cccc(C2NC(=O)NC(C)=C2C(=O)Nc2ccc(C)cc2)c1OC` (centres undefined)?
miR-122 sensor: -2; UUG fidelity: -2; Statin myotox sup: 2; Cneo AK release: -1

What do the screens show for `COc1cccc(C2NC(=S)NC(C)=C2C(=O)c2ccccc2)c1OC` (centres undefined)?
miR-122 sensor: 147*; Statin myotox sup: -36

Results for COc1ccc(S(=O)(=O)Nc2cc(C)c(O)c(S(=O)(=O)c3ccccc3)c2)cc1 ?
miR-122 sensor: 129*; UUG fidelity: 0; Statin myotox sup: 9; Cneo AK release: 0

What do the screens show for `O=C(CSc1nc(-c2ccco2)cc(C(F)(F)F)n1)N1CCSCC1`?
miR-122 sensor: 2; UUG fidelity: -22; Statin myotox sup: 86*; Cneo AK release: 0

What do the screens show for `Nc1ncnc2nc(Sc3ccc(Cl)cc3)[nH]c12`?
miR-122 sensor: 0; UUG fidelity: -21; Statin myotox sup: 14; Cneo AK release: 0

How did CC(C)Sc1nc2ncnc(N)c2[nH]1 do in these assays?
miR-122 sensor: -2; UUG fidelity: -7; Statin myotox sup: -5; Cneo AK release: 114*

What do the screens show for `CCS(=O)(=O)Nc1ccc2c(c1)C(=O)N(C)[C@@H]1CC[C@H](CC(=O)NCCOC)O[C@@H]1CO2`?
Statin myotox sup: 3; Cneo AK release: 5

What do the screens show for `C[C@H]1CN([C@@H](C)CO)C(=O)c2cc(NC(=O)Cc3cn(C)c4ccccc34)ccc2O[C@H]1CN(C)Cc1ccc(C(=O)Nc2ccccc2N)cc1`?
miR-122 sensor: 17[16.7 µM]; UUG fidelity: 6; Statin myotox sup: 86*; Cneo AK release: -2
